The results in this text go back to patent publication US20150011566A1, “N-PHENYLPIPERAZINE DERIVATIVES THAT ARE ANTAGONISTS OF A1A, A1D ADRENOCEPTORS AND 5-HT1A RECEPTORS FOR THE TREATMENT OF BENIGN PROSTATE HYPERPLASIA, PHARMACEUTICAL COMPOSITIONS CONTAINING THE SAME” (UNIVERSIDADE FEDERAL DO RIO DE JANEIRO-UFRJ, priority 2012, published 2015).

Amino acid sequences for entries named in this document (tags omitted).
UniProt P19327, whole entry: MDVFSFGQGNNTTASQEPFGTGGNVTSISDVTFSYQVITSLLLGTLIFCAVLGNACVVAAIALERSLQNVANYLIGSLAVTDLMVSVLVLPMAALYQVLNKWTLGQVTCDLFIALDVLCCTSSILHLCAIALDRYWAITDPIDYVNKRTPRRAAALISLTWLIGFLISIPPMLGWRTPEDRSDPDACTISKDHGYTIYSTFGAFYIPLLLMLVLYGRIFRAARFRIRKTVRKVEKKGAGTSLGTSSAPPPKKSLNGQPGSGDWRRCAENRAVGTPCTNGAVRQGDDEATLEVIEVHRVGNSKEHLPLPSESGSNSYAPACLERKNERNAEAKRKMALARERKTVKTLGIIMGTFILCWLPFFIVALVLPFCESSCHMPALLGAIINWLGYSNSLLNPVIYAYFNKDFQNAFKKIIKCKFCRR

What is called pKi is the Ki on a negative log10 scale, so that one unit is a factor of ten. Broadly, the Ki is the dissociation constant of the complex between target and ligand, obtained from inhibition or displacement. The low end stands for a stronger hold on the target, the high end for a looser hold on the target.

pKi: −log10 of the molar value.

In experiment [1] the target is T1, 5-HT1A receptors (Rattus norvegicus, UniProt P19327).
T1 construct: Intrinsic Activity at Native 5-HT1A Receptors; from tissue; host or cells: rat hippocampus membranes
Put plainly: Binding of [3H]p-MPPF with GTP to 5-HT1A receptors; intrinsic activity (Ki low/Ki high). As to conditions: read-out: Ki low; Table 13; antagonist radioligand [3H] p-MPPF in the presence of GTP. As to the method: (§1) Membrane preparations of rat hippocampus according to previously described by HALL et al (1985) and PEROUTKA (1986) were performed. The homogenization and centrifugation steps were performed identically to that described above for receptors α2A and 5-HT2A receptors.
(§2) The binding assays for the 5-HT1A receptors were performed as described previously in the literature and previously standardized in the laboratory through saturation experiments. […] (solvent for dilution of LDT's) for the determination of total binding, or 50 μL non-radioative serotonin at 10 μM to determine the non-specific binding (final volume of 500 μL). Assays were performed in triplicate. […] Assays were performed in triplicate.
After the incubation period, the reaction was stopped by adding 4 ml of ice-cold solution containing 5 mM Tris (pH 7.4), followed by vacuum filtration on glass fiber filter (GMF 3, Filtrak®) previously soaked with solution 0.5% polyethylenoimine. The filters were washed three times with 4 mL of ice-cold solution containing 5 mM Tris (pH 7.4) under vacuum to remove all free radioligand. […] The radioactivity retained on the filters was then determined in a liquid scintillation counter (Packard Tri-Carb 1600 TR). […] For these receptors were also determined the […] and Ki parameters. […]

Experiment [2] addresses T1, 5-HT1A receptors. Put plainly: Binding of [3H]-8-OH-DPAT to 5-HT1A receptors (rat hippocampus membranes). The note with it: Ki high (nM), Table 13; agonist radioligand [3H] 8-OH-DPAT. As to the method: as §1, §2
After the incubation period, the reaction was stopped by adding 4 ml of ice-cold solution containing 5 mM Tris (pH 7.4), followed by vacuum filtration on glass fiber filter (GMF 3, Filtrak®) previously soaked with solution 0.5% polyethylenoimine. The filters were washed three times with 4 mL of ice-cold solution containing 5 mM Tris (pH 7.4) under vacuum to remove all free radioligand. […] The radioactivity retained on the filters was then determined in a liquid scintillation counter (Packard Tri-Carb 1600 TR). […] For these receptors were also determined the […] and Ki parameters.

On to `Cl.NCCc1c[nH]c2ccc(O)cc12` [5-HT, 5-hydroxytryptamine hydrochloride], for which, at 5-HT1A receptors [1], the pKi was 6.72. Moreover, the Ki on 5-HT1A receptors [2] is 2.46 nM.
